Assay results from ChEMBL document CHEMBL1154694, “Discovery of a 2,4-diamino-7-aminoalkoxyquinazoline as a potent and selective inhibitor of histone lysine methyltransferase G9a” (J Med Chem, 2009).

Tests used:
[1] = molecular target: T1, Histone-lysine N-methyltransferase EHMT1 (Homo sapiens, UniProt Q9H9B1); test: Inhibition of GLP
T1 sequence (Q9H9B1 whole entry): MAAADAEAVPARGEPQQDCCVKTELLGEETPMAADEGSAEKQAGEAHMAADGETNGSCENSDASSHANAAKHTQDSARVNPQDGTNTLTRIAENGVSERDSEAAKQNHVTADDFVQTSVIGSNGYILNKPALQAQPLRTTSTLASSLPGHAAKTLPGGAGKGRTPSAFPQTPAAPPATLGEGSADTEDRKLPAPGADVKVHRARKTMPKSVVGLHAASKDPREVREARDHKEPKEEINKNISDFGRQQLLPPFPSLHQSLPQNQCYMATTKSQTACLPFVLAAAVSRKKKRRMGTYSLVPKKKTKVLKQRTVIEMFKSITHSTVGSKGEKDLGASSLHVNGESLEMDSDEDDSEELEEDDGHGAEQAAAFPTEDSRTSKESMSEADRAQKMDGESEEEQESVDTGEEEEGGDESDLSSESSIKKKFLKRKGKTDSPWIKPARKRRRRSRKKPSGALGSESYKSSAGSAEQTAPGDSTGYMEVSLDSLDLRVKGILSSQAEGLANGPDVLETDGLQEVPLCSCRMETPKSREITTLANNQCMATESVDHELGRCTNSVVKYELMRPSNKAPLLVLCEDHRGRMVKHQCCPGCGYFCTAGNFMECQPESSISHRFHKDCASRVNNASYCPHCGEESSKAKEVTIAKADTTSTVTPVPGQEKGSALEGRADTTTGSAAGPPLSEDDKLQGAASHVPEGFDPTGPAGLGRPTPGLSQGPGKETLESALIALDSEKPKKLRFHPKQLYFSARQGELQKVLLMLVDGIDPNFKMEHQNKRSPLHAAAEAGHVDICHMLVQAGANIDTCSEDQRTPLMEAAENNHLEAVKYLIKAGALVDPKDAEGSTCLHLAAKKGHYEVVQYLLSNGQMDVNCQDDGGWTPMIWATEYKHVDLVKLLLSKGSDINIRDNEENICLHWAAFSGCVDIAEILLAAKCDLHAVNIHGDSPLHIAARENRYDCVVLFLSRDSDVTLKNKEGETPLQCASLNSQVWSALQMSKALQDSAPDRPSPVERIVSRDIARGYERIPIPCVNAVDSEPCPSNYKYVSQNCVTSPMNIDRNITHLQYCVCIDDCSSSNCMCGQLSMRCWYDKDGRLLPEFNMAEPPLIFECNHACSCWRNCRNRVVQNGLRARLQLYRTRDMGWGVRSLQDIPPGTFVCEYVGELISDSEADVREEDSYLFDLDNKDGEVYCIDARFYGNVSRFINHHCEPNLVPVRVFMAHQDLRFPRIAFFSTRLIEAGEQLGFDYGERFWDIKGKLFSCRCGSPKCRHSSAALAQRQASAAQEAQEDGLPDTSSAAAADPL

[2] = molecular target: T2, Histone-lysine N-methyltransferase EHMT2 (Homo sapiens, UniProt Q96KQ7); test: Binding affinity to G9a by isothermal titration calorimetry
T2 sequence (Q96KQ7 whole entry): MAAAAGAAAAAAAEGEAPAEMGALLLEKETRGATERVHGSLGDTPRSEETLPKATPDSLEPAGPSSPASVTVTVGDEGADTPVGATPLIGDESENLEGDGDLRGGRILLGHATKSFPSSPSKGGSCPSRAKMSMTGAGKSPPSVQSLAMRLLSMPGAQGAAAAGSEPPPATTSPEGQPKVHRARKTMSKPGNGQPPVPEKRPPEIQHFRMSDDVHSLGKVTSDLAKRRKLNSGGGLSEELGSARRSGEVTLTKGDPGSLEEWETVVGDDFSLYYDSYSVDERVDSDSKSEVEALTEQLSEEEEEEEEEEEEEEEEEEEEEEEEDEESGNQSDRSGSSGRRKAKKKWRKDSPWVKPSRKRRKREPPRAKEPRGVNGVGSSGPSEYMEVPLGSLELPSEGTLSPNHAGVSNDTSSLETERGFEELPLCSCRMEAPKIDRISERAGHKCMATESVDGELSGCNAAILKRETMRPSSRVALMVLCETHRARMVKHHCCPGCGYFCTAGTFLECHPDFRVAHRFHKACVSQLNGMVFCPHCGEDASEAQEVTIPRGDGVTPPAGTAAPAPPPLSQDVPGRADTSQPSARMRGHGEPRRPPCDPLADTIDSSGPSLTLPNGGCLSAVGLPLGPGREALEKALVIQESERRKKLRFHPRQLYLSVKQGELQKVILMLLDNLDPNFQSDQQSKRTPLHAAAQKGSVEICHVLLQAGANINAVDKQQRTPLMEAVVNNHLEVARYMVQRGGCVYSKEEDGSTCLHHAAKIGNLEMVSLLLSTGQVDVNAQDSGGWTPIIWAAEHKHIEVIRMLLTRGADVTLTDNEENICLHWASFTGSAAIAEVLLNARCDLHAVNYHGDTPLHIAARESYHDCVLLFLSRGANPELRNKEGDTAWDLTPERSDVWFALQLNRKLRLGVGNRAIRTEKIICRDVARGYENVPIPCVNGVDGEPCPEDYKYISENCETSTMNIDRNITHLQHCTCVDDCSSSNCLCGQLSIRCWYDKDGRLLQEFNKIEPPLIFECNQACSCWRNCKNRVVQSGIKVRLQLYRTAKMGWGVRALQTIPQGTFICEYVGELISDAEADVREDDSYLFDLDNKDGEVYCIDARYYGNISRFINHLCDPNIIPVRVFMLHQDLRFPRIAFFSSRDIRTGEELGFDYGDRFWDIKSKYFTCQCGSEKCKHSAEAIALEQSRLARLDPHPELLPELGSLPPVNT

Row | Compound | IC50 [1] [µM] | Kd [2] [µM]
1 | COc1cc2nc(N3CCCN(C)CC3)nc(NC3CCN(Cc4ccccc4)CC3)c2cc1OC | 0.7 | 
2 | COc1cc2c(NC3CCN(C)CC3)nc(N3CCCN(C)CC3)nc2cc1OCCCN(C)C |  | 0.023
